Counter-ions that a name gives are not always drawn. A value given as a limit tells only on which side of the number the result lay.

Chains of the proteins cited; added tags and fusions are not shown.
UniProt P27338, whole entry: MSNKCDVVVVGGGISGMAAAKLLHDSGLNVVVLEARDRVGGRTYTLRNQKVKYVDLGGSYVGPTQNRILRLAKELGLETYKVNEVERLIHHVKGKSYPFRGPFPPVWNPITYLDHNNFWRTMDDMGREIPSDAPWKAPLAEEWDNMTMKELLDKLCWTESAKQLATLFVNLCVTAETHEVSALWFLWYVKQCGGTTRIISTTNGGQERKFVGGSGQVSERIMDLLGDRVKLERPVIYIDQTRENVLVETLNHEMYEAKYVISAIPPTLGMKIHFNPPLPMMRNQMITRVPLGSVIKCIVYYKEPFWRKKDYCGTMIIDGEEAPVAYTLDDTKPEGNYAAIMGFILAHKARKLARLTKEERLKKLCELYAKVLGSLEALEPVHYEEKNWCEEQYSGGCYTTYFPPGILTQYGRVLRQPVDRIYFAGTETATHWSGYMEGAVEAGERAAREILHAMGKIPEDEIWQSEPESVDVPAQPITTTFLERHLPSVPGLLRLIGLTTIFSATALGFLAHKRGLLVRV
UniProt P21397, whole entry: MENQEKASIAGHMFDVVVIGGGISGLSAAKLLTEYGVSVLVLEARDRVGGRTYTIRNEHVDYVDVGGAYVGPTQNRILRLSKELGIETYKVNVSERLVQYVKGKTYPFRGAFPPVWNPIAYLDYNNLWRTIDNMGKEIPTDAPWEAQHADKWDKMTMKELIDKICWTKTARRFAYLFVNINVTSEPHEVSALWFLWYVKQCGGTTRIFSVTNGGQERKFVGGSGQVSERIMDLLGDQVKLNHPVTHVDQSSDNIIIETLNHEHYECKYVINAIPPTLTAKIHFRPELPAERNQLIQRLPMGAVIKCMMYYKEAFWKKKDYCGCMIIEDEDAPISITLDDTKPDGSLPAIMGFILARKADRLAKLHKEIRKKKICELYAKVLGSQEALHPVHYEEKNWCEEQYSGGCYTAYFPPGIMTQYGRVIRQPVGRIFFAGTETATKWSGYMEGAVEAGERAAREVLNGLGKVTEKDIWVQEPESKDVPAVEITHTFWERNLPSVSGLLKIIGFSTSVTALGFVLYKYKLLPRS

Experiment [1] has as its target Human recombinant monoamine oxidase MAO-B (Homo sapiens (Human), UniProt P27338). Kind of experiment: Monoamine oxidase assay (kynuramine to 4-hydroxyquinoline fluorescence), MAO-B. Format: biochemical. The conditions noted are these: for Ki: Ki value used as designation for the IC50 value, range classes.
The target of experiment [2] is Human recombinant monoamine oxidase MAO-A (Homo sapiens (Human), UniProt P21397). Kind of experiment: Monoamine oxidase assay (kynuramine to 4-hydroxyquinoline fluorescence), MAO-A. Format: biochemical.

Broadly, the IC50 is the concentration needed to halve the response being measured. Broadly, the Ki is a dissociation constant, usually derived from enzyme kinetics or from competition with a known ligand. As for `c1ccc([C@H]2C[C@@H]2NC2CCNCC2)cc1` (racemic) [Example 1, N-((trans)-2-phenylcyclopropyl)piperidin-4-amine hydrochloride], in experiment [1], the 50% inhibitory concentration (IC50) is more than 100 µM and the Ki was more than 100 µM. On to `c1ccc(COc2ccc([C@@H]3C[C@H]3NC3CCNCC3)cc2)cc1` (relative stereo) [Example 4, N-((trans)-2-(4-(benzyloxy)phenyl)cyclopropyl)piperidin-4-amine hydrochloride], for which, in experiment [1], the concentration for half-maximal inhibition (IC50) is 3.18 µM and the Ki was in the range of 1 to 10 µM. The matching figures for `Clc1ccc(-c2ccc([C@H]3C[C@@H]3NCCC3CCOCC3)cc2)cc1` (relative stereo) [Example 9, (Trans)-2-(4′-chloro-[1,1′-biphenyl]-4-yl)-N-(2-(tetrahydro-2H-pyran-4-yl)ethyl)cyclopropanamine hydrochloride]: 5.6 µM and 1 to 10 µM. As to `c1ncc([C@H]2C[C@@H]2NC2CCNCC2)s1` (relative stereo) [Example 18, N-((trans)-2-(thiazol-5-yl)cyclopropyl)piperidin-4-amine], in experiment [1], the IC50 is more than 100 µM. On the same count and under the same terms, in the case of `CS(=O)(=O)N1CCC(N[C@H]2C[C@@H]2c2ccccc2)CC1` (relative stereo) [Example 32, 1-(methylsulfonyl)-N-((trans)-2-phenylcyclopropyl)piperidin-4-amine] it was more than 100 µM.

Turning to `CN1CCC(N[C@H]2C[C@@H]2c2ccccc2)CC1` (relative stereo) [Example 37, 1-methyl-N-((trans)-2-phenylcyclopropyl)piperidin-4-amine], the IC50 in experiment [2] and in experiment [1] was more than 100 µM throughout.

For `CC(C)N1CCC(N[C@H]2C[C@@H]2c2ccccc2)CC1` (relative stereo) [Example 38, 1-isopropyl-N-((trans)=2-phenylcyclopropyl)piperidin-4-amine], the half-inhibitory concentration (IC50) in experiment [2] is more than 100 µM. Regarding `c1ccc([C@H]2C[C@@H]2NC2CCN(c3ccncc3)CC2)cc1` (relative stereo) [Example 40, N-((trans)-2-phenylcyclopropyl)-1-(pyridin-4-yl)piperidin-4-amine], the IC50 in experiment [2] is more than 100 µM. Same read-out and setting: in the case of `O=S1(=O)CCC(N[C@H]2C[C@@H]2c2ccc(Br)cc2)CC1` (relative stereo) [Example 41, 4-(((trans)-2-(4-bromophenyl)cyclopropyl)amino)tetrahydro-2H-thiopyran 1,1-dioxide] it was more than 50 µM. In the case of `c1ccc([C@H]2C[C@@H]2NC2CCNCC2)cc1` [Example 2, N-((1S,2R)-2-phenylcyclopropyl)piperidin-4-amine hydrochloride], in experiment [1], the IC50 is more than 100 µM and the Ki is more than 100 µM. With `c1ccc([C@@H]2C[C@H]2NC2CCNCC2)cc1` [Example 3, N-((1R,2S)-2-phenylcyclopropyl)piperidin-4-amine hydrochloride], in experiment [1], the 50% inhibitory concentration (IC50) is more than 100 µM. `Fc1ccccc1C1CC1NC1CCNCC1` (stereo not drawn) [Example 20, N-(2-(2-fluorophenyl)cyclopropyl)piperidin-4-amine]: the IC50 in experiment [2] and in experiment [1] was more than 100 µM in each case.

The values are drawn from patent publication US9487512B2, “(Hetero)aryl cyclopropylamine compounds as LSD1 inhibitors” (ORYZON GENOMICS, S.A., priority 2011, dated 2016).
